# Values quoted from earlier work, collected in patent US10729128B2, “Emulsion blocking latex protein and other skin irritants” (BIOTD SOCIEDAD ANONIMA, priority 2014, dated 2020).
# Conditions: in water
smiles,measurement,value
CC12CCC(CC1)C(C)(C)O2 [Essence of Eucalyptus],Solubility,immiscible with water
